Experimental data reported in article PMC2009656 (British Journal of Cancer, 1978).
Only a part of the results on these compounds is given; other tests are left out.

System: isolated liver rough endoplasmic reticulum (RER)
Details: Table IV.3; incubate 12 ug/ml; 2 h, 25 C; >5% regarded as positive

Dinitrobenzene
Degranulation (%): 0-1%
